We go through one molecule from BindingDB's records for doi:10.1016/j.bmcl.2011.09.113 (Johnson & Johnson Pharmaceutical Research and Development, 2011).

A short description of the assay: Antagonist activity at CCR2 by chemotaxis functional assay.

The term IC50 denotes the concentration needed to halve the response being measured. The low end stands for higher potency, the high end for lower potency. The molecule `NC(=O)C(NC1CCC(c2c[nH]c3ccccc23)CC1)C1CCN(C(=O)/C=C/c2cc(F)cc(F)c2)CC1` (racemic) showed an IC50 of 4 nM.
